# Experimental data reported in PubChem BioAssay AID904 (National Center for Advancing Translational Sciences (NCATS), 2007).
# Only a part is listed here, and it is no random draw. Some tests of the compounds listed are not included; inactive here does not mean inactive elsewhere. Records with an inconclusive call do not appear. Activity calls are given as the source filed them. Calls come from the whole dose curve; as a rule, active = well fitted cell-killing curve with a large enough effect; inconclusive = small, poorly fitted or top-dose-only effect; inactive = no such curve, though single readings can be large or run the other way.
# Assay: qHTS Screen for Compounds that Selectively Target Cancer Cells with p53 Mutations: Cytotoxicity of p53 Null Cells at the Nonpermissive Temperature;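 note: 0% = DMSO only and -100% = full killing by 100 µM tamoxifen; nearly all actives have a fitted effect of over 50% in size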
# Conditions: H1299 p53-null (neo) cells, 39C, ATPlite viability, 24 h; at 46.1 µM (top of the series)
# Source text: NIH Chemical Genomics Center [NCGC] NIH Molecular Libraries Screening Centers Network [MLSCN] MLSCN Grant: 1 X01 MH079844-01 Assay Submitter (PI): Dr. SUN, YI, University of Michigan NCGC Assay Overview: Synthetic Lethal Screen for Compounds to Kill Cancer Cells with p53 Mutation. Tumor suppressor gene p53 serves as a major cellular barrier against tumorigenesis. […] The goal of this screening is to identify small molecule probes that selectively kill cancer cells with mutations in p53. This screening was carried out using two lines of H1299 lung cancer cells. The H1299-p53 A138V line express a temperature sensitive p53 mutant (p53ts) in which the mutant p53 protein (A138V) is in the mutant confirmation when grown at 39C (the nonpermissive temperature) and in the wild type conformation when grown at 32C (the permissive temperature). A H1299-neo line (p53 null) grown at both 39C and 32C were used as counter-screens to filter out false positive associated with temperature shifting. The small molecular compounds that selectively target mutant p53-containing cancer cells were selected as candidate probes for further study. A cytotoxicity assay based on the measurement of ATP contents in cells was used in this screen. Concentration-responses of all the compounds in the library collection were determined in qHTS using the cell lines and temperature conditions as above.
# NCGC Assay Protocol Summary: Both the H1299-p53A138V and H1299-neo cell lines were provided by Dr.Yi Sun, a PI at the University Michigan. The cells were maintained and cultured at 37C. The resuspended frozen cells were used to plate the cells in the 1536-well assay plates at a density of 600 cells per well in 5 ul medium. The assay plates with the cells were incubated at 37C for 16 to 30 hours before the experiments. The library compounds in DMSO solution were added to the cells in assay plates and incubated 24 hours at 39C (for mutant p53 conformation) or 32C (for normal p53 conformation as control). An ATP_lite assay kit (PerkinElmer) was used to determine the cell viability. Tomaxifen (100uM) was used as the positive control for cell killing. Data were normalized to the controls for basal activity (DMSO only) and 100% killing (100uM tamoxifen). AC50 values were determined from concentration-response data modeled with the standard Hill equation. P53 assay protocol: 1. Reagent; 5 uL H1299-p53A138V or H1299-neo cell cells/well 2. Time; overnight; 37C incubation 3. Compounds; 23 nL; 5.9 nM to 46 uM 4. Controls; 23 nL; Tamoxifen 100 uM 5. Time; 24 hr; 39C incubation 6. Reagent; 3 uL; ATP_Lite reagent 7. Time; 20 min; Room Temperature 8. Detection; Luminescence; Viewlux plate reader Keywords: p53, synthetic lethal, cancer, cell viability, cytotoxicity, H1299 cell line, luminescence, MLSMR, MLSCN, NIH Roadmap, qHTS, NCGC
row,Structure (SMILES),"activity, negative = cell killing"
1,CN(C)C1(CNC(=O)c2ccccc2[N+](=O)[O-])CCCCC1,inactive: 16.2%
2,CN(C)C1CCCC1OC(=O)C(O)(c1ccccc1)c1ccccc1 (stereo unspecified),inactive: 4.24%
3,CCCCOc1ccccc1C(=O)NCC1(N(C)C)CCCCC1,inactive: -0.248%
4,CN(C)C1(CNC(=O)c2cccc(Cl)c2)CCCCC1,inactive: 19.3%
5,CN(C)C1(CNC(=O)c2ccccc2F)CCCCC1,inactive: 8.93%
6,COc1cc(C(=O)NCC2(N(C)C)CCCCC2)cc(OC)c1OC,inactive: 10.9%
7,Cc1cccc(C(=O)NCC2(N(C)C)CCCCC2)c1,inactive: -5.07%
8,CC(C)Oc1ccc(C(=O)NCC2(N(C)C)CCCCC2)cc1,inactive: -14.4%
9,COc1cccc(C(=O)NCC2(N3CCOCC3)CCCCC2)c1,inactive: -3.99%
10,CC(C)COc1ccc(C(=O)NCC2(N(C)C)CCCCC2)cc1,inactive: -18.9%
11,COc1ccc(C(=O)NCC2(N(C)C)CCCCC2)cc1Cl,inactive: 17.8%
